The subject of assay [1] is MCF7 (breast) cancer cell line. Nature of the assay: MTT antiproliferation, MCF7. Conditions: for Selectivity index (SI), MCF7: SI = IC50 of RPE1/IC50 of MCF7; for IC50: read-out: IC50, (µM) ± SEM, MCF7, MTT, 72 h.
Assay [2] concerns A431 (skin/squamous) cancer cell line. Nature of the assay: MTT antiproliferation, A431. Conditions: for Selectivity index (SI), A431: SI = IC50 of RPE1/IC50 of A431; for IC50: read-out: IC50, (µM) ± SEM, A431, MTT, 72 h.
The subject of assay [3] is HCT116 (colon) cancer cell line. Nature of the assay: MTT antiproliferation, HCT116. The following applies: for Selectivity index (SI), HCT116: SI = IC50 of RPE1/IC50 of HCT116; for IC50: read-out: IC50, (µM) ± SEM, HCT116, MTT, 72 h.
Assay [4] relates to RPE1 (normal human immortalized retinal pigment epithelial cell line). Nature of the assay: MTT toxicity/selectivity, normal RPE1 cells. Conditions: read-out: IC50, (µM) ± SEM, RPE1.
The subject of another assay is p53. Nature of the assay: p53 level/activation (ELISA) in MCF7. Conditions: ratio of % activation.
Another assay addresses MDM2 (Homo sapiens, UniProt Q00987). As to the kind of experiment: MDM2 level/inhibition (ELISA) in MCF7. Conditions: ratio of % inhibition. For orientation: An ELISA detects its analyte on a solid surface through an enzyme-linked reagent.
A further assay relates to topo-I. Conditions: read-out: IC50 of Dxd, topo-I inhibitor; reference standard; cited from earlier work.

The chains behind the UniProt entries cited, without tags or fusion partners.
UniProt Q00987, whole entry, looked up: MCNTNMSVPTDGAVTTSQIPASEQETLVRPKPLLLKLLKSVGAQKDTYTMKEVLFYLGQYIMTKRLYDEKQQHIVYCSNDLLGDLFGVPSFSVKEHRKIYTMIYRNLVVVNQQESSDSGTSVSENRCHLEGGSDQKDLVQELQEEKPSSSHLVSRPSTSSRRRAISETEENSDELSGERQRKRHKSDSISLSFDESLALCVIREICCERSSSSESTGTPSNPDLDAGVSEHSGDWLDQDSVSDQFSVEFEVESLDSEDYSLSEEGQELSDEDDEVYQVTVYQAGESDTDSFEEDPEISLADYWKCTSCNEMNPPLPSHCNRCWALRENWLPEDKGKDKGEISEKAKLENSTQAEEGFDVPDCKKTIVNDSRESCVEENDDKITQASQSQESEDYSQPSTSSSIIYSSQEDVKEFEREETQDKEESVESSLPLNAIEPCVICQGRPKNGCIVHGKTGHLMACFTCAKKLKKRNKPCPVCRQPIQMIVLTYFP

As to `CCOP(=S)(OCC)N1C/C(=C\c2ccc(C)cc2)C(=O)/C(=C/c2ccc(C)cc2)C1`, in assay [1], the Selectivity index (SI), MCF7 was over 10.9 and the IC50 (as a rule, the midpoint of a concentration-inhibition curve) is 2.29 µM. Besides, in assay [2], the Selectivity index (SI), A431 is over 4.79 and the IC50 turned out to be 5.22 µM. In assay [3], the Selectivity index (SI), HCT116 was over 11 and the IC50 came to 2.28 µM. Moreover, the IC50 in assay [4] was over 25 µM.

In the case of `CCOP(=S)(OCC)N1C/C(=C\c2cc(OC)c(OC)c(OC)c2)C(=O)/C(=C/c2cc(OC)c(OC)c(OC)c2)C1`, in the assay with p53, the “p53 activation fold relative to doxorubicin” value worked out at 1.5 fold. In assay [1], the Selectivity index (SI), MCF7 was determined as 1.95 and the IC50 amounted to 1.08 µM. In addition, in assay [2], the Selectivity index (SI), A431 came to 1.93 and the IC50 came to 1.1 µM. Also, the “Potency fold relative to 5-fluorouracil, A431” value in assay [2] (ratio of IC50 values) was determined as 21 fold. For the same compound, the “Anti-MDM2 potency fold relative to doxorubicin” value at MDM2 worked out at 1.55 fold. Besides, in assay [3], the Selectivity index (SI), HCT116 was found to be 1.09 and the IC50 is 1.94 µM. Further, the IC50 in assay [4] was determined as 2.11 µM.

In the case of `CCOP(=S)(OCC)N1C/C(=C\c2ccc(Cl)cc2)C(=O)/C(=C/c2ccc(Cl)cc2)C1`, in assay [1], the Selectivity index (SI), MCF7 was 1.93 and the IC50 is 1.27 µM. In assay [2], the Selectivity index (SI), A431 is 1.31 and the IC50 stood at 1.87 µM. Also, in assay [3], the Selectivity index (SI), HCT116 was found to be 1.66 and the IC50 amounted to 1.48 µM. For the same compound, the IC50 in assay [4] worked out at 2.46 µM.

Consider `CCOP(=S)(OCC)N1C/C(=C\c2ccc(OC)c(OC)c2)C(=O)/C(=C/c2ccc(OC)c(OC)c2)C1`, for which, in assay [1], the Selectivity index (SI), MCF7 turned out to be 1.06 and the IC50 was determined as 1.48 µM. In assay [2], the Selectivity index (SI), A431 worked out at 1 and the IC50 amounted to 1.57 µM. Moreover, in assay [3], the Selectivity index (SI), HCT116 is 1.08 and the IC50 worked out at 1.46 µM. Further, the IC50 in assay [4] is 1.58 µM.

With `CCOP(=S)(OCC)N1C/C(=C\c2ccccc2)C(=O)/C(=C/c2ccccc2)C1`, in assay [1], the Selectivity index (SI), MCF7 amounted to 1.59 and the IC50 came to 2.71 µM. Also, in assay [2], the Selectivity index (SI), A431 was 0.27 and the IC50 was 16 µM. For the same compound, in assay [3], the Selectivity index (SI), HCT116 was determined as 2.06 and the IC50 was 2.09 µM. The IC50 in assay [4] came out at 4.31 µM.

In turn, `CCOP(=S)(OCC)N1C/C(=C\c2cccc(OC)c2)C(=O)/C(=C/c2cccc(OC)c2)C1` showed a Selectivity index (SI), MCF7 in assay [1] of 2.01. Moreover, the IC50 worked out at 1.58 µM in assay [1], 2.94 µM in assay [2], 1.74 µM in assay [3] and 3.18 µM in assay [4]. Moreover, the Selectivity index (SI), A431 in assay [2] was determined as 1.08. The compound further gave a Selectivity index (SI), HCT116 in assay [3] of 1.83.

In assay [1], `CCOP(=S)(OCC)N1C/C(=C\c2ccc(OC)cc2)C(=O)/C(=C/c2ccc(OC)cc2)C1` showed a Selectivity index (SI), MCF7 of over 2.22. Besides, the IC50 in assay [1] is 11.3 µM; in assay [2] it was over 25 µM; in assay [3], over 25 µM; in assay [4] it was over 25 µM.

Regarding `CCOP(=S)(OCC)N1C/C(=C\c2ccccc2OC)C(=O)/C(=C/c2ccccc2OC)C1`, in assay [1], the Selectivity index (SI), MCF7 is 2.46 and the IC50 came to 4.19 µM. Also, in assay [2], the Selectivity index (SI), A431 was found to be 3.94 and the IC50 came out at 2.61 µM. Further, in assay [3], the Selectivity index (SI), HCT116 turned out to be 4.57 and the IC50 amounted to 2.25 µM. In assay [4], the IC50 was 10.3 µM.

In the case of `CCOP(=S)(OCC)N1C/C(=C\c2ccc(Br)cc2)C(=O)/C(=C/c2ccc(Br)cc2)C1`, in assay [1], the Selectivity index (SI), MCF7 is 1.97 and the IC50 stood at 1.21 µM. In assay [2], the Selectivity index (SI), A431 came to 1.23 and the IC50 was 1.93 µM. Moreover, in assay [3], the Selectivity index (SI), HCT116 came out at 1.49 and the IC50 stood at 1.6 µM. Also, the IC50 in assay [4] worked out at 2.38 µM.

As for `CC[C@@]1(O)C(=O)OCc2c1cc1n(c2=O)Cc2c-1nc1cc(F)c(C)c3c1c2[C@@H](NC(=O)CO)CC3`, in the assay with topo-I, the IC50 is 0.4 µM.

`CCOP(=S)(OCC)N1C/C(=C\c2ccc(F)cc2)C(=O)/C(=C/c2ccc(F)cc2)C1` returned a Selectivity index (SI), MCF7 in assay [1] of 4.21. For the same compound, the IC50 in assay [1] came out at 1.76 µM; in assay [2], 5.36 µM; in assay [3], 1.62 µM; in assay [4] it was 7.4 µM. Also, the Selectivity index (SI), A431 in assay [2] came out at 1.38. The compound also had a Selectivity index (SI), HCT116 in assay [3] of 4.58.

Take `CCOP(=S)(OCC)N1C/C(=C\c2cccc(Cl)c2)C(=O)/C(=C/c2cccc(Cl)c2)C1`: in assay [1], the Selectivity index (SI), MCF7 worked out at 4.7 and the IC50 came out at 0.65 µM. Moreover, in assay [1] (ratio of IC50 values), the “Effectiveness fold relative to 5-fluorouracil, MCF7” value came to 4.8 fold and the “Effectiveness fold relative to sunitinib, MCF7” value is given as 6.1 fold. In addition, in assay [2], the Selectivity index (SI), A431 was found to be 1.05 and the 50% inhibitory concentration (IC50) turned out to be 2.92 µM. In assay [3], the Selectivity index (SI), HCT116 is 2.12 and the IC50 amounted to 1.45 µM. Besides, in assay [3] (ratio of IC50 values), the “Potency fold relative to 5-fluorouracil, HCT116” value is recorded as 14 fold and the “Potency fold relative to sunitinib, HCT116” value was 6.7 fold. Besides, the IC50 in assay [4] amounted to 3.06 µM.

Turning to `CCOP(=S)(OCC)N1C/C(=C\c2cccs2)C(=O)/C(=C/c2cccs2)C1`, the IC50 in assay [1], in assay [2], in assay [3] and in assay [4] was over 25 µM each time.

(Values after publication PMC12627723, “Antineoplastic 4-piperidone-1-phosphonothioates with potential multi-targeted inhibitory properties” (Scientific Reports, 2025).)
